# Measured values published in ChEMBL document CHEMBL3867481, “GPR40 agonists for the treatment of type 2 diabetes mellitus: The biological characteristics and the chemical space” (Bioorg Med Chem Lett, 2016).
# The chains behind the UniProt entries cited, without tags or fusion partners.
# UniProt O14842, whole entry: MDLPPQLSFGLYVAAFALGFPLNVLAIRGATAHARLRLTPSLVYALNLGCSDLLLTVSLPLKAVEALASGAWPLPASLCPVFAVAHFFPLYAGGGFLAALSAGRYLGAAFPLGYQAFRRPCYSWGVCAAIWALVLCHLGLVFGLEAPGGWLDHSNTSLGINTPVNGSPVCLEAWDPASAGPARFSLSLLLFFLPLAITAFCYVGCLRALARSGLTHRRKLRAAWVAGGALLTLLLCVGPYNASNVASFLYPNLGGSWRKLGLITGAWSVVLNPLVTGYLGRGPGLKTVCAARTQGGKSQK
# Target: Free fatty acid receptor 1 (Homo sapiens, UniProt O14842)
# Assay: Agonist activity at human GPR40 expressed in HEK293 cells assessed as increase in intracellular Ca2+ flux by FLIPR assay relative to linoleic acid
# Assay type: functional, cell-based
smiles,measurement,value
CC#C[C@@H](CC(=O)O)c1ccc(OCc2ccc(CN3CCCc4cccc(OC)c43)s2)cc1,Emax,84%
